Measured values reported in US7138389B2, “Oral androgen therapy using modulators of testosterone bioavailability” (University of Washington, priority 2004, dated 2006).

Test: Example 1: open-label single-dose study of oral testosterone 400 mg with finasteride or dutasteride, fasting or fed
Conditions: in vivo
Experimental: Study Design. The study was divided into a screening period, a two-week drug exposure period, and a one-month recovery period (see FIG. 1, Experimental Design). At screening, study investigators performed an interview and physical examination; blood samples for measurement of hormones (testosterone, DHT, Estradiol (E2), FSH and LH), routine hematology, chemistry and hepatic function tests were collected. No drugs were administered in the control period.
Subjects will come in on day 5 for a brief blood draw. There was no drug administration on days 5 or 6.
The administration of the testosterone on days 1, 4 and 10 took place while the subjects were eating breakfast with at least 15 grams of fat.
After treatment day 11, subjects underwent a final assessment on day 28–42.

C[C@]12C=CC(=O)N[C@@H]1CC[C@@H]1[C@@H]2CC[C@]2(C)[C@@H](C(=O)Nc3cc(C(F)(F)F)ccc3C(F)(F)F)CC[C@@H]12 [dutasteride, (5′,17β)-N-[2,5-Bis(trifluoromethyl)phenyl]-3-oxo-4-azaandrost-1-ene-17-carboxamide]
lowering serum DHT levels, compared with finasteride: more effective
